Compounds with a hit are over-represented: about 2.1% of the library has one in this group of screens.
UUG fidelity: alters start codon recognition fidelity in yeast. S. cerevisiae UUG-firefly luciferase reporter, luminescence/redox ratio. activity score, % at 18.7 µM. 0.13% of 350,000 active. AID 602363;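 active = replicate mean at a twofold rise or more, about +100% in these data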;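 also: firefly luciferase made from a UUG start codon reports start codon fidelity; reporter light over untreated wells divided by growth signal over untreated wells; some hits fall short of that in this replicate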
Wnt bcat act: Wnt/beta-catenin pathway activators, primary screen, cell-based, plate reader, single point. activation, % at 9.35 µM. hit rate 1.2% among 300,000. Wnt/beta-catenin reporter cell assay, activator. AID 743398, 2014; in the data active = activation above about 30%, passing the limit was not always enough
TRPM1 prom inh: inhibitors of MITF-dependent TRPM1 promoter reporter, primary screen, cell-based, SK-MEL-5, single point, luciferase | hit rate 0.83% among 330,000 | SK-MEL-5 TRPM1 promoter luciferase, 24 h | inhibition, % at 12.5 µM;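 active = mean inhibition across replicates of 60% or more, whatever share of single replicates reaches that level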
miR122 inh: miR-122 Renilla sensor signal increase in Huh7, primary screen, miR-122 inhibitor project, cell-based, single point, plate reader. Huh7 miR-122 Renilla luciferase sensor, 48 h; neutral wells = 0, positive control = 100. activation (reporter increase), % at 12.5 µM. hit rate 0.3% among 340,000. AID 602342, 2012;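 active = mean replicate activation score at least 90 and every replicate individually at or above 90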;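 note: higher luciferase means less miR-122 activity so hits act as miR-122 inhibitors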
MITF TRPM1 HTS: activators of MITF-driven TRPM1 promoter reporter, primary screen, cell-based, SK-MEL-5, luciferase, single point | SK-MEL-5 TRPM1-promoter luciferase, 24 h; % of positive control, neutral wells = 0 | activation, % at 12.5 µM | hit rate 0.75% among 300,000 | AID 588334, 2011;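 active = mean activation of at least 80% with every replicate also reaching 80%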
PGC1a acetyl inh: inhibitors of PGC1a acetylation signal, primary screen, cell-based, U2OS, AlphaScreen, inhibitor mode | hit rate 0.17% among 350,000 | inhibition, % at 15.6 µM | AID 651687, 2012 | AlphaScreen anti-acetyl-lysine; with virally co-expressed GCN5 acetyltransferase;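 active = every replicate shows inhibition of at least 40%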
Hits are given with their value.

What do the screens show for `COc1ccccc1N(C(=O)CCl)c1cn(C(C)=O)c2ccccc12`?
UUG fidelity: inactive; Wnt bcat act: inactive; TRPM1 prom inh: 63.1; miR122 inh: inactive; MITF TRPM1 HTS: inactive

Results for CC(=O)n1cc(N(C(=O)CCl)c2ccc(Cl)cc2)c2ccccc21 ?
UUG fidelity: inactive; miR122 inh: inactive; PGC1a acetyl inh: inactive

What do the screens show for `CO[C@H]1CN(C)C(=O)c2cc(NS(C)(=O)=O)ccc2OC[C@@H](C)N(CCC(F)(F)F)C[C@@H]1C`?
UUG fidelity: inactive; miR122 inh: inactive; PGC1a acetyl inh: inactive

What do the screens show for `CCOC(=O)c1csc(NC(=O)c2cccs2)n1`?
UUG fidelity: inactive; Wnt bcat act: 37.2; TRPM1 prom inh: inactive; miR122 inh: inactive; MITF TRPM1 HTS: 95.2; PGC1a acetyl inh: inactive

How did O=C(COc1ccccc1)Nc1nc2c(s1)CCCC2 do in these assays?
UUG fidelity: inactive; Wnt bcat act: inactive; TRPM1 prom inh: inactive; miR122 inh: inactive; MITF TRPM1 HTS: 113.9; PGC1a acetyl inh: inactive

Results for C[C@@H]1CN([C@@H](C)CO)C(=O)Cc2cc(NC(=O)Cc3ccccc3)ccc2O[C@H]1CN(C)S(=O)(=O)c1ccc(F)cc1 ?
UUG fidelity: inactive; miR122 inh: inactive; PGC1a acetyl inh: inactive

How did O=C(Oc1ccccc1)N1CCCCC1 do in these assays?
UUG fidelity: inactive; Wnt bcat act: inactive; PGC1a acetyl inh: inactive

How did O=C(Oc1ccc(-c2ccccc2)cc1)N1CCCCC1 do in these assays?
UUG fidelity: inactive; TRPM1 prom inh: inactive; miR122 inh: inactive; MITF TRPM1 HTS: 126.7; PGC1a acetyl inh: inactive

What do the screens show for `O=C(Nc1cc(F)ccc1F)N1C[C@@H]2[C@H](c3ccccc31)[C@H](CO)N2C(=O)c1ccccc1`?
UUG fidelity: inactive; miR122 inh: inactive; PGC1a acetyl inh: inactive

Results for C[C@@H]1CN([C@H](C)CO)C(=O)c2cc(NC(=O)Nc3ccc4c(c3)OCO4)ccc2O[C@H]1CN(C)Cc1ccc2c(c1)OCO2 ?
UUG fidelity: inactive; miR122 inh: inactive; PGC1a acetyl inh: inactive

How did COc1ccc(NC(=O)Nc2ccc3c(c2)C(=O)N([C@@H](C)CO)C[C@@H](C)[C@@H](CN(C)C(=O)NC(C)C)O3)cc1 do in these assays?
UUG fidelity: inactive; miR122 inh: inactive; PGC1a acetyl inh: inactive

Results for Cc1ccc(-c2cnc3c(c2)C(=O)N([C@@H](C)CO)C[C@@H](C)[C@H](CN(C)CC2CCOCC2)O3)cc1 ?
UUG fidelity: inactive; miR122 inh: inactive; PGC1a acetyl inh: inactive

What do the screens show for `Clc1ccc(CSc2nc3ccncc3[nH]2)cc1`?
UUG fidelity: inactive; Wnt bcat act: 37.4; TRPM1 prom inh: inactive; MITF TRPM1 HTS: inactive

What do the screens show for `Cc1ccc(CSc2nc3ccncc3[nH]2)cc1`?
UUG fidelity: inactive; Wnt bcat act: inactive; TRPM1 prom inh: inactive; miR122 inh: inactive; MITF TRPM1 HTS: inactive; PGC1a acetyl inh: inactive

Results for COC(=O)c1ccc(CSc2nc3ccccc3o2)cc1 ?
UUG fidelity: inactive; TRPM1 prom inh: inactive; miR122 inh: inactive; MITF TRPM1 HTS: inactive; PGC1a acetyl inh: inactive

What do the screens show for `O=[N+]([O-])c1ccc(CSc2nc3ccccc3o2)cc1`?
UUG fidelity: inactive; Wnt bcat act: inactive; TRPM1 prom inh: inactive; miR122 inh: inactive; MITF TRPM1 HTS: 97.5; PGC1a acetyl inh: inactive

Results for O=C(Nc1ccc2oc(-c3ccccc3F)nc2c1)c1ncn[nH]1 ?
UUG fidelity: inactive; Wnt bcat act: 52.4; TRPM1 prom inh: inactive; miR122 inh: inactive; MITF TRPM1 HTS: inactive; PGC1a acetyl inh: inactive

Results for O=C(Cc1ccccc1)NC(=S)Nc1ccc2oc(-c3ccccc3F)nc2c1 ?
UUG fidelity: inactive; TRPM1 prom inh: inactive; miR122 inh: inactive; MITF TRPM1 HTS: 125.3; PGC1a acetyl inh: inactive

Results for Cc1ccc(NC(=O)c2ncn[nH]2)cc1 ?
Wnt bcat act: inactive; TRPM1 prom inh: inactive; miR122 inh: inactive; MITF TRPM1 HTS: inactive; PGC1a acetyl inh: inactive

Results for O=C(Nc1ccc2oc(-c3ccc(Cl)c(Cl)c3)nc2c1)c1ncn[nH]1 ?
UUG fidelity: inactive; Wnt bcat act: 42.1; TRPM1 prom inh: inactive; miR122 inh: inactive; MITF TRPM1 HTS: inactive

What do the screens show for `CO[C@@H]1CN(C)C(=O)c2cc(NS(C)(=O)=O)ccc2OC[C@@H](C)N(C(=O)C2CCC2)C[C@H]1C`?
UUG fidelity: inactive; miR122 inh: inactive; PGC1a acetyl inh: inactive

Results for CCCNC(=O)Nc1ccc2c(c1)OC[C@@H](C)N(C(=O)C1CCCC1)C[C@@H](C)[C@H](OC)CN(C)C2=O ?
miR122 inh: inactive; PGC1a acetyl inh: inactive

How did Cc1cc2c(C)nc(-c3ccccc3)nc2o1 do in these assays?
UUG fidelity: inactive; Wnt bcat act: 48.5; TRPM1 prom inh: inactive; miR122 inh: inactive; MITF TRPM1 HTS: inactive; PGC1a acetyl inh: inactive

What do the screens show for `C[C@@H]1CN([C@@H](C)CO)C(=O)c2cc(NS(=O)(=O)c3ccc(F)cc3)ccc2O[C@H]1CN(C)C(=O)Nc1ccc(F)cc1`?
UUG fidelity: inactive; miR122 inh: inactive; PGC1a acetyl inh: inactive

Results for Cc1ccc(C(=O)Cn2nnc3ccccc32)cc1C ?
UUG fidelity: inactive; Wnt bcat act: 47.0; TRPM1 prom inh: inactive; miR122 inh: inactive; MITF TRPM1 HTS: 110.2; PGC1a acetyl inh: inactive

What do the screens show for `C[C@@H]1CN([C@H](C)CO)S(=O)(=O)c2ccc(-c3cncnc3)cc2O[C@@H]1CN(C)C(=O)c1cccc(F)c1`?
UUG fidelity: inactive; miR122 inh: inactive; PGC1a acetyl inh: inactive

What do the screens show for `Clc1ccc(OCCN2CCCCC2)cc1Cl`?
UUG fidelity: inactive; TRPM1 prom inh: inactive; miR122 inh: inactive; MITF TRPM1 HTS: inactive; PGC1a acetyl inh: inactive

What do the screens show for `ON=C1c2cc(OCCN3CCCCC3)ccc2-c2ccc(OCCN3CCCCC3)cc21`?
UUG fidelity: inactive; TRPM1 prom inh: 74.5; miR122 inh: inactive; PGC1a acetyl inh: inactive

What do the screens show for `NC(=S)NN=C1c2cc(OCCN3CCOCC3)ccc2-c2ccc(OCCN3CCOCC3)cc21`?
Wnt bcat act: inactive; TRPM1 prom inh: 79.1; MITF TRPM1 HTS: inactive

What do the screens show for `Cc1noc(C)c1NC(=O)Nc1ccc2c(c1)C(=O)N([C@H](C)CO)C[C@H](C)[C@H](CN(C)Cc1ccc(C(F)(F)F)cc1)OCCCC[C@H](C)O2`?
UUG fidelity: inactive; miR122 inh: inactive; PGC1a acetyl inh: inactive

Results for CN(C)CCN1CC(O)=C(c2nc3ccccc3s2)C1=N ?
UUG fidelity: inactive; Wnt bcat act: inactive; TRPM1 prom inh: inactive; miR122 inh: inactive; MITF TRPM1 HTS: inactive; PGC1a acetyl inh: inactive

How did COc1ccc(N2CC(O)=C(c3nc4ccccc4s3)C2=N)c(OC)c1 do in these assays?
UUG fidelity: inactive; Wnt bcat act: inactive; TRPM1 prom inh: inactive; miR122 inh: 102.1
